In PubChem BioAssay (EPA / NIEHS):
“And” between values parts separate entries of the source, which are not always exact repeats. Equal entries are not always repeated. This is a selection; strong and weak results do not stand in their true shares. The source made the active and inactive calls. The calls were made as follows: active = hit-call score of the fitted dose curve at least 0.9, where 1 is the maximum; inactive = score below 0.9.

experiment: ATG_PXRE_CIS: Attagene CIS-FACTORIAL HepG2 Assay for human Pregnane X Receptor Element (PXRE) (AID 2282957); conditions: HepG2 Attagene CIS-FACTORIAL PXRE reporter, mRNA; actives raise or lower the signal
Description: ATG_CIS is a cell-based, multiplexed-readout assay that uses HepG2, a human liver cell line, with measurements taken at 24 hours after chemical dosing in a 24-well plate.ATG_PXRE_CIS is one of 52 assay component(s) measured or calculated from the ATG_CIS assay. It is designed to make measurements of mRNA induction, a form of inducible reporter, as detected with fluorescence intensity signals by Reverse transcription polymerase chain reaction (RT-PCR) and Capillary electrophoresis technology.Data from the assay component ATG_PXRE_CIS was analyzed into 1 assay endpoint. This assay endpoint, ATG_PXRE_CIS, was analyzed with bidirectional fitting relative to DMSO as the negative control and baseline of activity. Using a type of inducible reporter, measures of mRNA for gain or loss-of-signal activity can be used to understand the reporter gene at the transcription factor-level as they relate to the gene NR1I2. Furthermore, this assay endpoint can be referred to as a primary readout, because this assay has produced multiple assay endpoints where this one serves a reporter gene function. To generalize the intended target to other relatable targets, this assay endpoint is annotated to the nuclear receptor intended target family, where the subfamily is non-steroidal.
Human liver HepG2 cells are transiently transfected with multiple reporter transcription units (MRTUs) in 6-well plates using FuGene 6 reagent (Roche; 3 ml FuGene/1 mg DNA). The MRTU constructs are regulated by a cis-regulating element (promoter). […] A major difference between the CIS and TRANS system is that in CIS activities of endogenous TFs are measured, whereas the TRANS assay evaluates changes in activities of exogenous, chimeric NR-Gal4 proteins. […] At the end of 24 hour incubation, total RNA was isolated using TriZol reagent (Invitrogen). The isolated RNA is then reverse-transcribed using oligo(dT) primer and Mo-MLV reverse transcriptase (Invitrogen) with DNAse I (Ambion) treatment for 30 min. The one-tenth of the produced cDNA was amplified by PCR using Taq DNA polymerase (Invitrogen) and two reporter sequence-specific primers. The PCR products were fluorescently labeled by primer extension with 6-arboxyfluorescein (6-FAM) 5'-labeled reporter sequence-specific primer (2 min at 95 C, 20 s at 68 C and 10 min at 72 C) and these products were digested with 5U of HpaI (New England Biolabs) for 2h at 37 C. The fragments were purified using Qiaquick PCR columns (Qiagen), analyzed on an ABI 3130xL genetic analyzer (Applied Biosystems) with peak positions identified by using a set of X-rhodamine (ROX)-labeled MapMarker1000 molecular weight standards (BioVentures). The raw capillary electrophoresis data was processed using Attagraph software (Attagene).

Structure (SMILES) | outcome | AC50
O=C(Cl)Oc1ccccc1 | inactive | –
CCCCC(CC)CO[P+](=O)OCC(CC)CCCC (stereo unspecified) | – | active: 18.5 µM
O=[p+]1oc2ccccc2c2ccccc21 (stereo unspecified) | – | active: 63.4 µM
O=[N+]([O-])c1ccc([N+](=O)[O-])cc1 | inactive | –
O=C(Cl)OCCOC(=O)Cl | inactive | –
O=[As]c1ccccc1 (stereo unspecified) | – | active: 0.282 µM
CC(C)CCCCCCCOP(OCCCCCCCC(C)C)Oc1ccccc1 | – | active: 3.39 µM
N#CSc1ccc([N+](=O)[O-])cc1[N+](=O)[O-] | inactive | –
O=C1C2CC=CCC2C(=O)N1SC(Cl)(Cl)C(Cl)Cl (stereo unspecified) | – | active: 0.365 µM
CN(C(=O)Cc1cccc2occc12)[C@H]1CC[C@@]2(CCCO2)C[C@@H]1N1CCCC1 | – | active: 16.8 µM
ClP(Cl)c1ccccc1 | inactive | –
O=[P+](Oc1ccccc1)Oc1ccccc1 | inactive | –
Cc1cc([N+](=O)[O-])cc([N+](=O)[O-])c1O | inactive | –
CCCCO[P+](=O)OCCCC | inactive | –
CC(C)OP(=S)(OC(C)C)SCCNS(=O)(=O)c1ccccc1 | – | active: 105 nM and active: 103 nM and active: 72.5 nM
O=P(Cl)(Oc1ccccc1)Oc1ccccc1 | – | active: 41.5 µM
